# Reference: article PMC8027564, “A novel luminescence-based β-arrestin recruitment assay for unmodified receptors” (The Journal of Biological Chemistry, 2021)
# Chains of the proteins cited; added tags and fusions are not shown. Lines headed by an entry give the natural chain unless they say otherwise; changes in a name come on top. Residues count along the entry.
# UniProt P14416, 1-414 isoform P14416-2: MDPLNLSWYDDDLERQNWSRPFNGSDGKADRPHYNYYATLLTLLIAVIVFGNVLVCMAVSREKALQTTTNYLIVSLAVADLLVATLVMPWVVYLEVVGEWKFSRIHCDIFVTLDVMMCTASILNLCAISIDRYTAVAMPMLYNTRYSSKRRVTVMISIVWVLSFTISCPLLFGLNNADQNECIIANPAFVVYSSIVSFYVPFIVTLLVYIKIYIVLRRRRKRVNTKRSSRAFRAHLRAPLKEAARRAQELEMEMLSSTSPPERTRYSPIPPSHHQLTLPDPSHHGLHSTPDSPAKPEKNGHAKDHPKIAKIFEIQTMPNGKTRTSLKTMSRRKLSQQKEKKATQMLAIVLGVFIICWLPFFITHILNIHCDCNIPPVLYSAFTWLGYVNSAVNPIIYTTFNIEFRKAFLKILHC
# Target: T1, D2R (Homo sapiens, UniProt P14416)
# T1 construct: expressed in transfected cells; host or cells: Hek293 (D2R cotransfected with GRK2, MeN and ArC)
# Assay type: cell-based
compound,measurement,value
"CCCN1CCCC(c2cccc(O)c2)C1 (stereo not shown) [PPP, (3-hydroxyphenyl)-N-propylpiperidine]",pEC50 ± SD,−5.61 ± 1.01
